Drawing on ChEMBL document CHEMBL1145929, “Syntheses and binding studies of new [(aryl)(aryloxy)methyl]piperidine derivatives and related compounds as potential antidepressant drugs with high affinity for serotonin (5-HT) and norepinephrine (NE) transporters” (J Med Chem, 2003), this text covers IC50 for 2 compounds.

The chains behind the UniProt entries cited, without tags or fusion partners.
UniProt P23977, whole entry: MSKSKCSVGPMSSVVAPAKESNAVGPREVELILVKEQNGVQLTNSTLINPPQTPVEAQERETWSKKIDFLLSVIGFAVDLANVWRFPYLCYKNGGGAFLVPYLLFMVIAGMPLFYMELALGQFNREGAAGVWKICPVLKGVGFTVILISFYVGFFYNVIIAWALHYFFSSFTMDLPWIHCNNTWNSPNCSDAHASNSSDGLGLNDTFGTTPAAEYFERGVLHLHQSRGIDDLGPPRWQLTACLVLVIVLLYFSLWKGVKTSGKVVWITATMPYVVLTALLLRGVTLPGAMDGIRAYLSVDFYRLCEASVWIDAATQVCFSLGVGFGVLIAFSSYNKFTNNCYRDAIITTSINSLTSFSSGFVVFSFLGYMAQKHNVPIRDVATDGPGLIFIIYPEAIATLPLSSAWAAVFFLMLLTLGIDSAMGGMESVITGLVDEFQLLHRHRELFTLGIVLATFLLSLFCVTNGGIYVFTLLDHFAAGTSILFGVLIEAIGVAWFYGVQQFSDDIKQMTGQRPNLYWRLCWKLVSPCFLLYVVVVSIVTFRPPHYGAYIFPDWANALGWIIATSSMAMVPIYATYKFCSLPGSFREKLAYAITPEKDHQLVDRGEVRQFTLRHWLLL
UniProt P31652, whole entry: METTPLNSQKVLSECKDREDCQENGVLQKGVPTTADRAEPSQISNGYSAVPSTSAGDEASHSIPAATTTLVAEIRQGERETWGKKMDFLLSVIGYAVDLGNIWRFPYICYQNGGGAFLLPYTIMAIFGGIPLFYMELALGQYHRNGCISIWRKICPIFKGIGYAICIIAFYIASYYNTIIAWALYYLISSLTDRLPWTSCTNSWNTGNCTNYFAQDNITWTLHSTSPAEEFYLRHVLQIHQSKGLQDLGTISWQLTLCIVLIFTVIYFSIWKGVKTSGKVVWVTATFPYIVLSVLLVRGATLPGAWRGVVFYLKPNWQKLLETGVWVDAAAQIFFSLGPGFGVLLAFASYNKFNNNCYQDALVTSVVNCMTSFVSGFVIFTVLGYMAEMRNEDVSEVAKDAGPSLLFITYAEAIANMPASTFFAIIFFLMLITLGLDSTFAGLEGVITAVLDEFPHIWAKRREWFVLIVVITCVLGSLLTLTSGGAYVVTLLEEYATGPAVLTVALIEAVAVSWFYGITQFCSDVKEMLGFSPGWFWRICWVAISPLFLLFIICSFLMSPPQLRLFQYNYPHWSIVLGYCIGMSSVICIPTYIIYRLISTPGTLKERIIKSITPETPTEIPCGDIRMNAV

Assay [1] concerns the target Sodium-dependent dopamine transporter (Rattus norvegicus, UniProt P23977). The experiment in a line: Binding affinity against dopamine transporter (DAT) by displacement of [3H]WIN-35428 in male wistar rats. In general terms: In a radioligand displacement assay an active substance lowers the binding of a labelled ligand.
The target in assay [2] is Sodium-dependent serotonin transporter (Rattus norvegicus, UniProt P31652). Description: Binding affinity against serotonin transporter (SERT) by displacement of [3H]paroxetine in male wistar rats.

By IC50 is commonly meant the midpoint of a concentration-inhibition curve. Lower therefore signals higher potency.

In the case of `CNCCC(Oc1ccccc1OC)c1ccccc1` (stereo not drawn) [NISOXETINE], the IC50 in assay [1] and in assay [2] was greater than 500 nM each time. `Fc1ccc([C@@H]2CCNC[C@H]2COc2ccc3c(c2)OCO3)cc1` [PAROXETINE] had an IC50 in assay [1] greater than 1000 nM.
